Laboratory results published in patent US8618111B2, “5-alkynyl-pyrimidines” (Boehringer Ingelheim International GmbH, priority 2010, dated 2013).

Assays:
[1] = molecular target: mTOR (Homo sapiens (Human), UniProt P42345); experiment: mTOR kinase activity assay (phosphorylation status of mTOR substrate 4E-BP1; TR-FRET); details: read-out: IC50 mTOR, GFP-4E-BP1 substrate, 8 μM ATP
[2] = tested on: PC3 (human prostate carcinoma cell line) cells; experiment: PC3 proliferation test; details: read-out: EC50 PC3, 3 days incubation, DNA dye fluorescence

Q: With CCC1(O)CCN(c2ncnc(C)c2C#Cc2ccc(N)nc2)CC1 as the compound, how does the IC50 [1] read?
A: 4 nM

Q: And the EC50 [2]?
A: 21 nM
